# Experimental data published in PubChem BioAssay AID743279 (National Center for Advancing Translational Sciences (NCATS), 2014).
# The entries are a selection whose mix differs from that of the whole data set. Inconclusive results are not listed. The source made the active and inactive calls. Rule as the data show it: active = activity change below about -50%; inconclusive = mostly about -30% to -49%; inactive = weaker than that.
# Test: qHTS for Inhibitors of Inflammasome Signaling: IL-1-beta AlphaLISA Primary Screen
# Details: THP-1 LPS/ATP IL-1B secretion, 16 h, at 57.5 µM, active compounds read low
# Excerpt: Inflammasomes are a set of intracellular multi-protein complexes that enable autocatalytic activation of inflammatory caspases and drive the innate immune response to counter harmful agents. […] A qHTS assay, based on AlphaLISA technology, was developed to screen the Molecular Libraries Small Molecule Repository (MLSMR) to look for novel inflammasome inhibitors. The assay detects IL-1B using AlphaLISA anti-IL-1B acceptor and donor beads. A decreased emission signal, indicating reduced IL-1B secretion, is the desired outcome for this assay. NIH Chemical Genomics Center [NCGC] NIH Molecular Libraries Probe Centers Network [MLPCN] MLPCN Grant: MH095513 Assay Provider: Shyam Biswal Ph.D., Johns Hopkins University Immunity. 2012 Jul 27;37(1):85-95. PMID: 22819042 [2] Curr Pharm Des. 2012;18(16):2320-8. PMID: 22390695
# Three microliters containing 3000 THP-1 cells were dispensed into the wells of solid, white, tissue culture treated Greiner 1,536-well plates. Library compounds and positive control, Glyburide, were pin-transferred (23 nL) by a Kalypsys pin-tool equipped with a 1,536-pin array, resulting in final compound concentration ranges of 2.5 nM to 57.5 uM. After 1 hr of cell culture incubation (37 °C, 5% CO2), 1 microL of 1 microg/mL lipopolysaccharide (250 ng/mL, final) and 5 mM ATP (1.25 mM, final) were added to stimulate the cells. After 16 hr of cell culture incubation with the compounds, 1.5 uL of anti-IL-1B acceptor beads (6 ug/mL, final) and biotinylated antibody (0.6 nM, final) were added to the plate, followed by a 1 hr incubation at ambient temperature. To detect the secreted IL-1B, 1.5 uL of AlphaLISA SA-Donor beads (24 ug/mL, final) were added, followed by 30 min of incubation in the dark at ambient temperature. The AlphaLISA signal was read by a PerkinElmer EnVision plate reader with an ultrasensitive luminescence detector and 1536 Plate HTS AlphaScreen aperture (excitation of 680nm and emission of 615nm).
# % is scaled to controls: 0 for no effect and ±100 for the full control effect.
row,Structure (SMILES),activity change
1,O=P(Nc1nccs1)(c1ccccc1)c1ccccc1,inactive: 19.3%
2,CC(C)C(=O)NC(Sc1ccccc1)C(Cl)(Cl)Cl (stereo not drawn),inactive: 5.88%
3,c1nnnn1CCn1cnnn1,inactive: 12%
4,CN(C)C1(CNC(=O)c2ccc(Cl)c(S(N)(=O)=O)c2)CCCCC1,inactive: 9.36%
5,O=P(Nc1ccccn1)(c1ccc(Br)cc1)c1ccc(Br)cc1,inactive: -9.8%
6,Nc1ccc(CCCCOc2ccccc2)cc1,inactive: -15.2%
7,COc1ccc(N)c([N+](=O)[O-])c1[N+](=O)[O-],inactive: -6.59%
8,O=P(Nc1nc2ccccc2s1)(c1ccccc1)c1ccccc1,inactive: 1.41%
9,C[C@H]1OP(=O)(Oc2ccccc2)[C@H](O)[C@H](O)[C@H]1N=[N+]=[N-] (stereo partly drawn),inactive: 10.3%
10,O=[As](O)(c1ccccc1)c1ccc(O)cc1,inactive: -8.62%
11,CC(=O)NC(SC(=S)N(C)C)C(Cl)(Cl)Cl (stereo not drawn),active: -52.4%
12,O=[N+]([O-])c1ncn(CCn2cnc([N+](=O)[O-])n2)n1,inactive: 11.7%
13,O=[N+]([O-])c1ccc(O)c(/C=N/Nc2ccc([N+](=O)[O-])cc2[N+](=O)[O-])c1,inactive: -4.84%
14,O=C(OC1CN2CCC1CC2)c1cccc(Cl)c1 (stereo not drawn),inactive: 11%
15,Nc1ccc([As](=O)(O)c2ccc([N+](=O)[O-])cc2)cc1,inactive: -6.77%
16,C(Cc1nn[nH]n1)Cc1nn[nH]n1,inactive: 14.3%
17,c1ccc(-c2nn[nH]n2)c(-c2nn[nH]n2)c1,inactive: 22.7%
18,O=C(NC1CCS(=O)(=O)C1)NP(=S)(Oc1ccccc1)Oc1ccccc1 (stereo not drawn),inactive: 7.21%
19,CCNC(=S)/N=C(\N)N[N+](=O)[O-],inactive: 0.747%
20,O=P1(N(CCCl)CCCl)OCCC2CCCCN21 (stereo not drawn),inactive: 13%
21,O=C(OC1CN2CCC1CC2)c1ccccc1 (stereo not drawn),inactive: -10.8%
22,CCC(=O)N1C2C3N(C(=O)CC)C1C1N(C(=O)CC)C(C(N1C(=O)CC)N3C(=O)CC)N2C(=O)CC,inactive: 5.57%
23,COC(=O)c1cc2c(s1)N=C(c1ccccc1)N(C)P2(=O)N1CCOCC1 (stereo not drawn),inactive: 3.54%
24,CC(=O)NC(SC(=S)N(CC(C)C)CC(C)C)C(Cl)(Cl)Cl (stereo not drawn),inactive: 7.82%
25,Cc1ccc(OP(=O)(Nc2ccccn2)Oc2ccc(C)cc2)cc1,inactive: -19.6%
26,Cc1ccccc1OP(=O)(Nc1ccccn1)Oc1ccccc1C,inactive: 7.96%

row,Structure (SMILES),activity change
1,CC(NC(=O)COC(=O)C(O)(c1ccccc1)c1ccccc1)c1ccccc1 (stereo not drawn),inactive: 9.01%
2,CN(C)C(=O)Oc1noc2ccccc12,inactive: 7.97%
3,O=c1c2cc([N+](=O)[O-])ccc2[nH]c2c([N+](=O)[O-])cc([N+](=O)[O-])cc12,active: -93.8%
4,O=P1(Nc2nc3ccc(Cl)cc3s2)COc2ccccc2O1 (stereo not drawn),inactive: 28.5%
5,CCOc1ccc(C2=NCC(CBr)S2)cc1 (stereo not drawn),inactive: 4.59%
6,CC(C)(C)C(=O)NC(Sc1ccccc1)C(Cl)(Cl)Cl (stereo not drawn),inactive: 0%
7,CCc1cc(O)c([N+](=O)[O-])c(C)c1[N+](=O)[O-],inactive: 12.6%
8,C[C@@H]1C=CCP(=O)(Oc2ccccc2)O1 (stereo partly drawn),inactive: 27%
9,C[C@H]1OP(=O)(Oc2ccccc2)C[C@@H]2O[C@@H]21 (stereo partly drawn),inactive: 0%
10,N#C/C(=C\c1ccc(N(CCBr)CCBr)cc1)C(N)=O,inactive: 4.88%
11,CC(=O)c1ccc(N2CC2c2ccncc2)cc1 (stereo not drawn),inactive: 14.9%
12,COC(=O)C1(C)COP(=O)(NCc2ccccc2)OC1 (stereo not drawn),inactive: 22.3%
13,CC(=O)Nc1ccc([As](=O)(O)O)c(O)c1,inactive: -6.1%
14,CC(=O)Nc1ccc(Oc2c([N+](=O)[O-])cc([N+](=O)[O-])cc2[N+](=O)[O-])cc1,inactive: 15%
15,Cc1ccc(N/C(=N/P(=O)(N2CCOCC2)N2CCOCC2)N2CCOCC2)cc1,inactive: 11.3%
16,NC(=O)c1cc([N+](=O)[O-])cc([N+](=O)[O-])c1N,inactive: 20.6%
17,Clc1ccc(Cl)c(NC2=NCC(CBr)S2)c1 (stereo not drawn),inactive: -11.4%
18,CN1CCCC(OC(=O)C(c2ccccc2)c2ccccc2)C1 (stereo not drawn),inactive: -15%
19,COc1ccccc1OP(=O)(Nc1ccc(C)cn1)Oc1ccccc1OC,inactive: 27%
20,Cc1ccc(OP(=O)(Nc2nccs2)Oc2ccc(C)cc2)cc1,inactive: 26.1%
21,Oc1ccccc1CNc1ccccn1,inactive: -7.04%
22,O=C(NC(Sc1ccncn1)C(Cl)(Cl)Cl)c1ccccc1 (stereo not drawn),inactive: 19.4%
23,CC(C)CC(=O)NC(Sc1ccc(Cl)cc1)C(Cl)(Cl)Cl (stereo not drawn),inactive: -10.3%
24,Nc1cc(N)c2nonc2c1[N+](=O)[O-],inactive: -8.5%
25,O=[N+]([O-])C1C(O)C(O)C([N+](=O)[O-])C(O)C1O (stereo not drawn),inactive: 0%
26,CN(C)P(=O)(N(C)C)n1c(Nc2ccccc2)nnc1-c1ccccc1,inactive: -6.13%

row,Structure (SMILES),activity change
1,O=C(O)c1ccccc1[As](=O)(O)O,inactive: -15%
2,CC(=O)Nc1ccc([As](=O)(O)O)cc1,inactive: 0%
3,CCCC1OP(N)(=O)OCC1CC (stereo not drawn),inactive: 16.8%
4,CCOP(=O)(Nc1ccccc1)OCC,inactive: 19.6%
5,Cc1cc(SC(NC(=O)c2ccc(F)cc2)C(Cl)(Cl)Cl)ncn1 (stereo not drawn),inactive: 20.9%
6,Cc1ccc(NP(=O)(Oc2ccccc2F)Oc2ccccc2F)nc1,inactive: 0.0402%
7,Nc1cccc2ccc([As](=O)(O)O)cc12,inactive: 12.8%
8,CCN(N=Nc1nonc1N)c1nonc1N,inactive: 3.95%
9,O=P1(N(CCCl)CCCl)OCCCS1 (stereo not drawn),inactive: 15.3%
10,O=C(Nc1cc([As](=O)(O)O)ccc1O)c1ccccc1,inactive: 12.3%
11,O=[N+]([O-])c1ncn(CCn2ncnc2[N+](=O)[O-])n1,inactive: 23.1%
12,CC(C)(C)C(=O)NC(Sc1ccncn1)C(Cl)(Cl)Cl (stereo not drawn),inactive: 10.9%
13,O=C(O)CNc1ccc([As](=O)(O)O)cc1,inactive: 6.16%
14,O=[N+]([O-])c1cccc(NC2=NCC(CBr)S2)c1 (stereo not drawn),inactive: 0%
15,COC(=O)C1(C)COP(=O)(Nc2ccccc2)OC1 (stereo not drawn),inactive: 13.9%
16,COc1ccc(C2=NCC(CBr)S2)cc1 (stereo not drawn),inactive: 9.65%
17,Cc1ccc(NP(=O)(Oc2ccccc2)Oc2ccccc2)nc1,inactive: 6.16%
18,O=[N+]([O-])c1cc([N+](=O)[O-])c(CCNc2ccccc2)c([N+](=O)[O-])c1,inactive: -15.3%
19,CCc1nc2c(n1)c1c(non1O)c1c2no[n+]1[O-],inactive: -19.2%
20,CC(=O)N1C2C3N(C(C)=O)C1C1N(C(C)=O)C(C(N1C(C)=O)N3C(C)=O)N2C(C)=O,inactive: 8.2%
21,O=[N+]([O-])c1cccc2n[nH]nc12,inactive: 26.1%
22,CCN(/C(=N/P(=O)(N1CCOCC1)N1CCOCC1)N1CCOCC1)c1ccc(OC)cc1,inactive: 29.7%
23,Nc1ccc([As](=O)(O)c2ccc(N)cc2)cc1,inactive: 5.15%
24,C[N+]1=C2C=CC=CC=C2SC12C([N+](=O)[O-])=CC([N+](=O)[O-])=C[C-]2[N+](=O)[O-] (stereo not drawn),active: -102%
25,c1cc(-c2nn[nH]n2)ccc1-c1nn[nH]n1,inactive: 2.46%
26,CC1CCN(C(=O)Oc2c(Cl)cc(Cl)c3cccnc23)CC1,inactive: -16.6%

row,Structure (SMILES),activity change
1,CC(C)=N/N=C(\N)N[N+](=O)[O-],inactive: 21%
2,CC(C)c1nc(Nc2ccccc2)n(P(=O)(N(C)C)N(C)C)n1,inactive: 3.33%
3,CN(C)C(=O)OCCc1n(C)cc[n+]1C,inactive: 7.64%
4,COP1(=S)c2c(C)nn(CCC#N)c2N=C(c2ccc(F)cc2)N1C (stereo not drawn),inactive: -5.85%
5,COC(=O)C1(C)COP(=O)(N2CCCC2)OC1 (stereo not drawn),inactive: 23.2%
6,O=C(O)C(=O)c1ccc(N(CCCl)CCCl)cc1,inactive: -21.1%
7,O=C(COc1ccccc1)OC1CN2CCC1CC2 (stereo not drawn),inactive: 21.4%
8,O=C(Nc1ccncc1[N+](=O)[O-])c1ccc([N+](=O)[O-])cc1[N+](=O)[O-],inactive: 36.8%
9,O=C(OC1CN2CCC1CC2)c1cccc([N+](=O)[O-])c1 (stereo not drawn),inactive: 25%
10,CSc1ccc(Nc2c([N+](=O)[O-])cc([N+](=O)[O-])cc2[N+](=O)[O-])cc1,active: -63.8%
11,CCOC(=O)c1ccc(NC(=O)C(C)(CCl)SC)cc1 (stereo not drawn),inactive: 6.48%
12,CCC(C)N(CC(C)C)C(=S)SC(NC(C)=O)C(Cl)(Cl)Cl (stereo not drawn),inactive: 47.8%
13,O=C(O)C(O)c1ccc(N(CCCl)CCCl)cc1 (stereo not drawn),inactive: -3.5%
14,CCOC(=O)Nc1ccc([As](=O)(O)O)c(O)c1,inactive: -7.16%
15,CC1CCNP(=O)(N(CCCl)CCCl)O1 (stereo not drawn),inactive: 6.43%
16,COP(=O)(OC)N1CC1c1ccccc1 (stereo not drawn),inactive: 8.65%
17,CCCCOc1ccc(C(=O)NCC2(N3CCCCC3)CCCCC2)cc1OC,inactive: 0.954%
18,Cc1cc(SC(NC(=O)c2ccccc2)C(Cl)(Cl)Cl)nc(C(C)C)n1 (stereo not drawn),inactive: -9.3%
19,CCOC(=O)Nc1cccc([As](=O)(O)O)c1,inactive: 19.7%
20,O=P(Nc1ccccn1)(c1cccc2ccccc12)c1cccc2ccccc12,inactive: -1.39%
21,O=[N+]([O-])c1ccc(Nc2ccc(Oc3ccc([N+](=O)[O-])cc3[N+](=O)[O-])cc2)c([N+](=O)[O-])c1,inactive: -16.7%
22,O=[As](O)(c1ccc(O)cc1)c1ccccc1O,inactive: -2.15%
23,C[As](=O)(O)c1cccc(C(=O)O)c1,inactive: 0%
24,COc1cc(C(=O)NCC2(N3CCOCC3)CCCCC2)ccc1OCC(C)C,inactive: -3.03%
25,O=[N+]([O-])c1ccc(-c2cc([N+](=O)[O-])c(O)c([N+](=O)[O-])c2)cc1,inactive: -9.65%
